The values below come from PMC3172709 (Journal of pharmacy & pharmaceutical sciences : a …, 2011).

SMILES strings stand for the structures.

One series has as its system MDR1 mRNA. The following applies: LS-180 cells, 48 h, 50 μM.
For series [1] the following is noted: following 600 mg dose; ref Facts & Comparisons 4.0, online edition; cited from earlier work.
The subject of the next series is P-gp. Kind of series: Western blot analysis of P-gp protein expression in drug-treated LS-180 cells. The following applies: 48 h. For orientation: Immunoblotting shows a protein as a band on a membrane.

With `CO[C@H]1/C=C/O[C@@]2(C)Oc3c(C)c(O)c4c(O)c(c(/C=N/N5CCN(C)CC5)c(O)c4c3C2=O)NC(=O)/C(C)=C\C=C\[C@H](C)[C@H](O)[C@@H](C)[C@@H](O)[C@@H](C)[C@H](OC(C)=O)[C@@H]1C` [Rifampicin], the “fold increase in MDR1 mRNA level” value in the series on MDR1 mRNA came to 6.2 fold. Further, the “plasma concentrations, average” value in series [1] is 21.5 µM. In addition, the “fold increase in P-gp expression” value with P-gp (50 μM) turned out to be 5.6 fold. The “fold increase in P-gp protein expression” value in the series with P-gp (over entire concentration range 5–100 μM, vs control) is on record as 4–7 fold.
